FGF22 binding: shifts melting point of recombinant human FGF22; Q9HCT0; recombinant FGF22 thermal shift, SYPRO orange fluorescence; percent of sucrose octasulfate shift, DMSO zero; activity (Tm shift, normalised), % at 9.99 µM; 1.5% of 340,000 active;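 active means mean Tm shift, scaled 0 neutral to 100 positive control, at about 1.3% or above, every replicate too, limit read from the data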
PglD inh: blocks C. jejuni PglD acetyltransferase activity; purified PglD enzyme, DTNB colorimetric CoA detection; inhibition, % at 12.5 µM; 0.098% of 360,000 active; AID 602405; in the data active means inhibition above about 16%, passing the limit was not always enough
PDI turbidity: inhibitors of human protein disulfide isomerase; inhibition, % at 10 µM; 0.052% of 350,000 active; PDI insulin aggregation turbidity, A650, 90 min;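 active means mean inhibition across replicates of 30% or more, whatever share of single replicates reach that level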
ERp5 inh: inhibitors of human ERp5; Q15084; ERp5 insulin aggregation, absorbance 650 nm, 90 min; inhibition, % at 9.99 µM; 0.05% of 350,000 active; AID 651711;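 active means mean replicate inhibition above about 25%, with every replicate also reaching it, limit read from the data, passing the limit was not always enough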
ARNT TACC3 PPI: disruptors of human ARNT/TACC3 interaction | Q9Y6A5 | AlphaScreen His-ARNT PAS-B/GST-TACC3 binding, luminescence; TACC3 fragment carries E629A point mutation | inhibition, % at 9.99 µM | 0.66% of 390,000 active | AID 623870;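 active means mean inhibition of replicates at least 50% and at least half of replicates each reaching 50%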;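 further: 0% = complete ARNT plus TACC3 wells and 100% = ARNT alone without TACC3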
Yeast UUG start: modulators of yeast start codon fidelity, primary screen, whole organism, S. cerevisiae, single point, plate reader | AID 602363, 2012 | S. cerevisiae UUG-firefly luciferase reporter, luminescence/redox ratio | activity score, % at 18.7 µM | hit rate 0.13% among 350,000;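 active = replicate mean at a twofold rise or more, about +100% in these data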;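 also: firefly luciferase made from a UUG start codon reports start codon fidelity; reporter light over untreated wells divided by growth signal over untreated wells; some hits fall short of that in this replicate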
* hit, by the source's call; / = not tested or not shown. Compounds with a hit are over-represented: about 1.9% of the library has one in this group of screens.

Results follow in this order: FGF22 binding	PglD inh	PDI turbidity	ERp5 inh	ARNT TACC3 PPI	Yeast UUG start
1) C=CCON/C(CCC)=C1\C(=O)C(C(=O)OC)C(C)(C)CC1=NC (stereo not given)
 : 44.1*	/	-1.0	-4.5	5.1	/
2) C=CC1C2C(C)=CC(C3C(=O)N(C)C(=O)C32)N1Cc1ccc(OC)cc1 (stereo not given)
 : -0.3	1.0	/	-5.3	5.7	-0.8
3) CCOC(=O)C1(CCCc2ccccc2)CCN(C(=O)c2cnc(C)cn2)CC1
 : 44.2*	4.3	5.7	-1.0	/	32.3
4) CCOC(=O)C1(CCCc2ccccc2)CCN(C(=O)c2cc(C)nc(C)n2)CC1
 : 0.4	5.7	8.2	-53.4	-10.9	-1.8
5) CCCCn1c2c(cc(C(=O)OC)c1=O)C(=O)CCC2
 : -0.4	-6.0	1.6	6.0	-1.2	5.1
6) O=C1CCCc2c1cc(C(=O)Nc1ccc(Br)cn1)c(=O)n2-c1ccccc1
 : /	-6.6	-0.2	/	-0.9	2.1
7) O=C1CCCc2c1cc(C(=O)O)c(=O)n2-c1ccccc1
 : 43.2*	-2.6	2.2	-5.5	-6.5	-29.6
8) CCOC(=O)c1cc2c(n(-c3ccc(Cl)cc3)c1=O)CCCC2=O
 : 43.8*	/	-4.9	-1.6	-0.6	/
9) COC(=O)c1cc2c(n(Cc3ccccc3)c1=O)CCCC2=O
 : 43.3*	2.0	-8.2	-1.7	1.1	2.1
10) c1ccc(CNC23CC4CC(CC(C4)C2)C3)nc1
 : 43.0*	/	-2.2	-10.3	2.5	/
11) Cc1oc(-c2ccccc2Cl)nc1CN1CCCCC1c1cccnc1 (stereo not given)
 : 43.1*	/	-0.7	4.1	/	/
12) O=C(c1cccnc1)N1N=C(C2CC2)CC1(O)C(F)(F)F (stereo not given)
 : 44.1*	17.5	3.2	-2.2	-14.9	6.7
13) COc1cccc(-c2ccc3c(c2)[C@H]2[C@H](CCN2C(=O)NC2CCCC2)[C@H](CO)N3C)c1
 : 0.5	0.4	/	1.1	active	4.5
14) CCN(CC)C(=O)c1sc(NC(=O)C(C)C)c(C#N)c1C
 : 43.8*	1.7	9.4	8.7	1.6	19.8
15) COc1ccc(-c2nc(NC(C)=O)sc2-c2ccc(OC)cc2)cc1
 : 43.5*	0.4	4.3	-0.2	0.2	1.2
16) CNc1nc(-c2ccc(OC)cc2)c(-c2ccc(OC)cc2)s1
 : 0.0	0.2	-1.1	1.2	11.5	-15.1
17) CC(c1ccncn1)N(C)Cc1nc(-c2ccc(C(F)(F)F)cc2)no1 (stereo not given)
 : -0.3	2.9	-4.7	0.4	/	-11.9
18) Cc1oc(-c2ccc3ccccc3c2)nc1CN(C)C(C)c1ccncn1 (stereo not given)
 : 43.5*	/	5.3	-4.3	/	/
19) O=c1cc(-c2ccc([N+](=O)[O-])cc2)c2ccc(O)cc2o1
 : 44.7*	0.4	-6.5	-4.7	-3.5	-15.2
20) CCCNC(=O)C[C@@H]1C[C@H]2c3cc(NC(=O)c4ccc5c(c4)OCO5)ccc3O[C@H]2[C@H](CO)O1
 : 0.0	-7.2	/	/	-7.2	0.9

Continued:
Results follow in this order: FGF22 binding	PglD inh	PDI turbidity	ERp5 inh	ARNT TACC3 PPI	Yeast UUG start
21) COc1ccc(CC(=O)OC(C)CN2CCCCC2)cc1 (stereo not given)
 : 43.4*	/	-1.7	0.2	-3.5	/
22) O=C1CCCN1CCc1cccc2ccccc12
 : 43.4*	-0.8	1.0	2.2	3.7	-15.6
23) CCNC(=O)[C@H]1[C@H](CO)[C@H]2Cn3c(ccc(-c4cccc(OC)c4)c3=O)[C@H]2N1C(=O)NC(C)C
 : 0.1	6.4	/	-2.4	3.5	/
24) CN1CCCN(Cc2nc(-c3cccc(C(F)(F)F)c3)no2)CC1
 : 43.3*	/	-0.4	1.4	-0.4	/
25) CC(=O)N1CCN(Cc2nc(-c3cccc(Cl)c3)no2)CC1
 : 43.1*	/	-0.1	-2.1	-4.9	/
26) CCOC(=O)N1CCN(Cc2nc(-c3cccc(C)c3)no2)CC1
 : 0.1	-0.3	5.1	-5.2	-1.1	-7.8
27) C[C@@H]1CN([C@H](C)CO)C(=O)c2cc(NC(=O)CCN3CCOCC3)ccc2O[C@H]1CN(C)S(=O)(=O)c1cccs1
 : 0.0	-1.1	/	2.2	/	-17.8
28) CC1COCC(C)N1C1=C(Cl)C(=O)c2ccccc2C1=O (stereo not given)
 : 0.4	-3.0	-6.2	6.0	30.0*	-16.0
29) CN1CCN(C2=C(Cl)C(=O)c3ccccc3C2=O)CC1
 : 0.4	/	40.8*	-0.5	22.6	/
30) Cc1ccc2c(c1)c1nnc(SCC(=O)Nc3cccc(Cl)c3C)nc1n2CC(=O)O
 : 1.7*	/	13.1	-0.5	1.6	/
31) Cc1ccc2c(c1)c1nnc(SCC(=O)Nc3ccccc3C(F)(F)F)nc1n2CC(=O)O
 : 0.4	/	1.6	3.7	15.8	/

Rewritten with bars between the fields: 3 of the compounds above.
item | Structure | FGF22 binding | PglD inh | PDI turbidity | ERp5 inh | ARNT TACC3 PPI | Yeast UUG start
24 | CN1CCCN(Cc2nc(-c3cccc(C(F)(F)F)c3)no2)CC1 | 43.3* | / | -0.4 | 1.4 | -0.4 | /
31 | Cc1ccc2c(c1)c1nnc(SCC(=O)Nc3ccccc3C(F)(F)F)nc1n2CC(=O)O | 0.4 | / | 1.6 | 3.7 | 15.8 | /
21 | COc1ccc(CC(=O)OC(C)CN2CCCCC2)cc1 (stereo not given) | 43.4* | / | -1.7 | 0.2 | -3.5 | /
